The subject of one series is H460 tumor model mice. Nature of the series: Biodistribution in H460 tumor model. To be noted: 5 mg/kg. From the text: (§1) In other studies, biodistribution of the conjugates was studied with H460 and H69 tumor models.
The next series concerns H69 tumor model mice. Nature of the series: Biodistribution in H69 tumor model. The following applies: 5 mg/kg.
From the text: as §1

Series [1] in a line: Lu levels in tumor, kidney and liver of mice at 0.5 mg/kg.

`CCNC(=O)c1nnc(-c2cc(C(C)C)c(O)cc2O)n1-c1ccc(CN2CCN(C(=O)CCNC(=O)[C@@H](CCC(=O)O)NC(=O)[C@@H](CCC(=O)O)NC(=O)[C@@H](CCC(=O)O)NC(=O)CN3CCN4CCN5CCN(CC3)CC(=O)[O][Lu]([O]C(=O)C4)[O]C(=O)C5)CC2)cc1` [Conjugate 2]: in the series on H460 tumor model mice (24 h, H460 study (2)), the “Tumor:kidney ratio, 24 h, H460 (2)” value is 0.41 and the “Tumor:liver ratio, 24 h, H460 (2)” value was 49.7. Moreover, in the series on H460 tumor model mice (H460 and H69 tumor models, Conjugate 1 vs Conjugate 2), the “tumor:liver ratios (comparison)” value is reported as “better”. In addition, the “tumor:kidney ratio” value in the series with H460 tumor model mice (H460 tumor model) stood at 0.4. Further, the “tumor:liver ratios” value with H460 tumor model mice (at 24 h, across H460 and H69 tumor models) is reported as 9-50. Moreover, in the series on H69 tumor model mice, the “Tumor:liver ratio, 24 h, H69” value worked out at 8.9. The “Average Lu in Liver” value in series [1] amounted to 0.50 % ID/g.

(Values after patent US20250387492A1, “HSP90-TARGETING CONJUGATES AND FORMULATIONS THEREOF” (Fusion Pharmaceuticals Inc., priority 2018, published 2025).)
